According to PubChem BioAssay AID1385 (PCMD, 2008):
Only a part is listed here, and it is no random draw. The source made the active and inactive calls.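 The calls were made as follows: active = inhibition above 40% at the single screening dose; inactive = the rest.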

Protein sequences, listed by entry. Tags and fused reporters are not part of them.
UniProt Q06609, whole entry: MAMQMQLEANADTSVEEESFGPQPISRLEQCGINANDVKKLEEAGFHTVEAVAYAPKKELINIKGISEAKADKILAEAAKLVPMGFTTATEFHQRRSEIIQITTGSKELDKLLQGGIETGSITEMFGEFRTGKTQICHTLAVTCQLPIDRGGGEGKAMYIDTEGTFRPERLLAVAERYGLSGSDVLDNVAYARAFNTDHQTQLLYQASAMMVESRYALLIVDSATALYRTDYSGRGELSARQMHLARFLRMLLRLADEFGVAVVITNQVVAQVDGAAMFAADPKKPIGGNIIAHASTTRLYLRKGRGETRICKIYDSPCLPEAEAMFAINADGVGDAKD

Each molecule was assayed against DNA repair protein RAD51 homolog 1 (Homo sapiens) (UniProt Q06609) (assay: human RAD51 strand exchange inhibitors, primary screen, biochemical, fluorescence (AID 1385;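 also: 0% = DMSO control wells and 100% = blanks with heterologous ssDNA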)). Conditions: hRad51 DNA strand exchange, fluorescence dequenching; at 10 µM; stronger effect = higher value.
With `CP(=O)(Nc1ccccc1Br)Oc1ccccc1` (stereo unspecified) the inhibition was inactive: 14.2%.
